This note sets out measurements from PMC7826266.

The assay deals with human insulin receptor overexpressed in Rat-1 cells (human) (UniProt P06213). Description: flow cytometry on cells.

As to FITC-labeled insulin (ligand), the shift of peak fluorescent intensity (100 nM FITC-insulin alone) came to 16.7%, the shift of peak fluorescent intensity (100 nM FITC-insulin with 10 nM IR-A43) is 20.5%, the shift of peak fluorescent intensity (100 nM FITC-insulin with 50 nM IR-A43) is 38.3% and the shift of peak fluorescent intensity (100 nM FITC-insulin with 250 nM IR-A43) was determined as 66.6%.
